For 47 compounds, activity change, negative = decrease results are on record in PubChem BioAssay AID1463 (National Center for Advancing Translational Sciences (NCATS), 2008).

The entries are a selection whose mix differs from that of the whole data set. Inconclusive results are not listed. Some structures show a salt or complex split into parts, the way the source records it. Activity calls are given as the source filed them. The call rests on the fitted dose curve; in most records, active means well fitted curve in the direction sought with a large enough effect; inconclusive means small, poorly fitted or top-dose-only effect; inactive means flat fitted curve, though single readings scatter.
On the % scale 0 is the no-effect control and ±100 the full control effect.

The nature of the assay: Counterscreen qHTS for Inhibitors of Tau Fibril Formation, Fluorescence Polarization. Further: nearly all actives have a fitted effect of over 55% in size. The conditions noted are these: tau K18 P301L (four-repeat tau fragment) Alexa594 fluorescence, heparin fibrillization; at 57.7 µM (top of the series).
Consider `CCOc1ccc(C)cc1CN(CCCl)CCCl`, for which the activity change, negative = decrease was inactive: -9.01%. `O=C(NCC1(N2CCOCC2)CCCCC1)c1ccc(Cl)cc1`: the activity change, negative = decrease was inactive: -2.1%. Regarding `COc1ccc(NC2CCN(CCc3ccccc3)CC2)c(OC)c1`, the activity change, negative = decrease was inactive: -14.4%. Take `COc1ccccc1C(=O)NCC1(N2CCOCC2)CCCCC1`: the activity change, negative = decrease was inactive: -7.14%. `Cc1ccc(OCC(C)C)c(CN(CCCl)CCCl)c1`: the activity change, negative = decrease is inactive: 2.63%. For the compound `COc1ccc(C(=O)NCC2(N3CCCCC3)CCCCC2)c(OC)c1OC`, the activity change, negative = decrease was inactive: 0.927%. On to `O=C(NCC1(N2CCOCC2)CCCCC1)c1cc2ccccc2o1`, for which the activity change, negative = decrease is inactive: -10.2%. For the compound `CCOC(=O)N1CCC(Nc2ccc(OC)cc2)CC1`, the activity change, negative = decrease was inactive: -4.06%. With `O=C(OC1CN2CCC1CC2)C1c2ccccc2Oc2ccccc21` (configuration not stated) the figure was inactive: 1.75%. The same measure for `N#CC1(Nc2ccccc2)CCN(Cc2ccccc2)CC1`: inactive: -14.8%. Regarding `COc1ccc(CN(CCCl)CCCl)cc1Cl`, the activity change, negative = decrease was inactive: -8.81%.

On to `CN(C)c1cccc(C(=O)NCC2(N3CCCCC3)CCCCC2)c1`, for which the activity change, negative = decrease is inactive: -1.13%. The same measure for `CC(C)c1ccc(NC2CCN(C(=O)OC(C)(C)C)CC2)cc1`: inactive: -5.99%; for `COc1ccc2c(c1O)-c1c(O)c(OC)cc3c1[C@H](C2)[N+](C)(C)CC3.O=[N+]([O-])c1cc([N+](=O)[O-])c([O-])c([N+](=O)[O-])c1[O-]`: inactive: -16.5%. Consider `O=C(OC1CN2CCC1CC2)c1ccc([N+](=O)[O-])cc1` (configuration not stated), for which the activity change, negative = decrease is inactive: -2.83%.

In the case of `CCCCOc1ccccc1C(=O)NCC1(N2CCOCC2)CCCCC1`, the activity change, negative = decrease is inactive: -9.98%.

For `O=C(NCC1(N2CCOCC2)CCCCC1)c1ccccc1Br`, the activity change, negative = decrease is inactive: 9.31%. With `CCOc1ccc(C(=O)NCC2(N3CCOCC3)CCCCC2)cc1` the figure was inactive: -0.596%; with `O=C(NCC1(N2CCCCC2)CCCCC1)c1cccc([N+](=O)[O-])c1`, inactive: 1.87%; with `N#CC1(Nc2ccccc2)CCN(CCc2ccccc2)CC1`, inactive: 0.0045%.

On to `CCCOc1cccc(C(=O)NCC2(N3CCOCC3)CCCCC2)c1`, for which the activity change, negative = decrease is inactive: -3.3%. Turning to `O=[N+]([O-])c1cc([N+](=O)[O-])c(NCC2CCS(=O)(=O)C2)c([N+](=O)[O-])c1` (configuration not stated), the activity change, negative = decrease is inactive: -3.5%. With `COc1ccc(NC2CCN(C(=O)OC(C)(C)C)CC2)cc1` the figure was inactive: -9.92%; with `CN1CCN(CCOC(=O)C(O)(c2ccccc2)c2ccccc2)CC1`, inactive: 0.131%; with `O=C(NCC1(N2CCOCC2)CCCCC1)c1cc(=O)[nH]c2ccccc12`, inactive: -11%.

As for `O=C(NCC1(N2CCOCC2)CCCCC1)c1ccc([N+](=O)[O-])cc1`, the activity change, negative = decrease is inactive: -5.88%. Take `O=C(NCC1(N2CCOCC2)CCCCC1)c1ccccc1[N+](=O)[O-]`: the activity change, negative = decrease is inactive: -5.8%.

For `N#Cc1ccc(C(=O)NCC2(N3CCCCC3)CCCCC2)cc1`, the activity change, negative = decrease is inactive: 2.26%. Consider `CCOC(=O)C(CC)C1=NC(C)(C)Cc2ccccc21.O=[N+]([O-])c1cc([N+](=O)[O-])c(O)c([N+](=O)[O-])c1` (configuration not stated), for which the activity change, negative = decrease was inactive: -6.01%. Regarding `c1ccc(CN2CCC(Nc3ccccc3)CC2)cc1`, the activity change, negative = decrease was inactive: -6.01%. For the compound `O=C(NCC1(N2CCOCC2)CCCCC1)c1ccccc1`, the activity change, negative = decrease is inactive: 2.05%.

Consider `COc1ccc(C(=O)NCC2(N3CCOCC3)CCCCC2)cc1OC`, for which the activity change, negative = decrease was inactive: -0.616%. Regarding `N/C(=N\O)c1c(N)no[n+]1[O-]`, the activity change, negative = decrease was inactive: 3.36%.

On to `O=C(OC1CN2CCC1CC2)C1c2ccccc2C=Cc2ccccc21` (configuration not stated), for which the activity change, negative = decrease was inactive: 2.89%. Regarding `O=C(O)c1cccc(Nc2c([N+](=O)[O-])cc([N+](=O)[O-])cc2[N+](=O)[O-])c1`, the activity change, negative = decrease is inactive: -6.36%. Turning to `CCOc1ncccc1C(=O)NCC1(N2CCOCC2)CCCCC1`, the activity change, negative = decrease is inactive: 1.69%. Regarding `CC(C)(C)OC(=O)N1CCC(Nc2ccccc2)CC1`, the activity change, negative = decrease was inactive: -7.99%. With `CCC(CO)(C(=O)OC1CN2CCC1CC2)c1ccccc1` (configuration not stated), the activity change, negative = decrease was inactive: 3.55%. In the case of `COc1cc(OC)cc(C(=O)NCC2(N3CCOCC3)CCCCC2)c1`, the activity change, negative = decrease is inactive: 7.63%. As to `COc1cc(C(=O)NCC2(N3CCOCC3)CCCCC2)cc(OC)c1OC`, the activity change, negative = decrease was inactive: 3.64%. With `CCCOc1ccc(C)cc1CN(CCCl)CCCl` the figure was inactive: -9.42%; with `CN(C)C1(CNC(=O)c2ccc(C(C)(C)C)cc2)CCCCC1`, inactive: -1.67%. On to `Fc1ccccc1NC1CCN(Cc2ccccc2)CC1`, for which the activity change, negative = decrease is inactive: 8.13%. On to `CCN1CCC(Nc2cccc(F)c2)CC1`, for which the activity change, negative = decrease was inactive: -12.5%. In the case of `CC(C)(C)c1ccc(C(=O)NCC2(N3CCOCC3)CCCCC2)cc1`, the activity change, negative = decrease was inactive: -8.66%. `CN(C)c1ccc(C(=O)NCC2(N3CCCCC3)CCCCC2)cc1`: the activity change, negative = decrease was inactive: 7.53%. In the case of `Cc1ccccc1C(=O)NCC1(N(C)C)CCCCC1`, the activity change, negative = decrease was inactive: 2.17%.
